One compound from doi:10.1101/2023.03.24.534094v2 (biorxiv, 2023) can be followed below.

Chains of the proteins cited; added tags and fusions are not shown. Lines headed by an entry give the natural chain unless they say otherwise; changes in a name come on top.
UniProt Q9P289: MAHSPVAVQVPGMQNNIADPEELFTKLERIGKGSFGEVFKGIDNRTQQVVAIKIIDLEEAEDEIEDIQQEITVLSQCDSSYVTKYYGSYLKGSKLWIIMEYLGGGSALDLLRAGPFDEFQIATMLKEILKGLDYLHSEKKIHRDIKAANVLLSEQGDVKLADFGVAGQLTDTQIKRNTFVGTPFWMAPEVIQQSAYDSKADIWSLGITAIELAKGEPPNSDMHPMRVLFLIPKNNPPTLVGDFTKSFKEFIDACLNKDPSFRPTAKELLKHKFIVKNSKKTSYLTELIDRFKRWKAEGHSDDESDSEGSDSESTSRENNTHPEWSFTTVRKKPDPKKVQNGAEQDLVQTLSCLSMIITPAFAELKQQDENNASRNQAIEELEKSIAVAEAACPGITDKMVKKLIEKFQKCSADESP

The structures appear in SMILES notation.

The experiment addresses MST4 (Homo sapiens, UniProt Q9P289). As to the kind of experiment: biochemical. Conditions: read-out: dTm MST4.

As for `CN[C@@H]1C[C@H]2O[C@@](C)([C@@H]1OC)n1c3ccccc3c3c4c(c5c6ccccc6n2c5c31)C(=O)NC4` [Staurosporine], the ΔTm at 10 µM was 7.3 °C.
